From patent US8828401B2, “Cytotoxic peptides and antibody drug conjugates thereof” (Pfizer Inc., priority 2011, dated 2014)

Experiments:
[1] = test system: MDA-MB-361-DYT2 (breast cancer); assay: In vitro cell assay, MTS cell viability 96 hours after treatment; format: cell-based; conditions: read-out: MDA-MB-361-DYT2 GMEAN IC50, MDA-MB-361-DYT2 cells; geometric mean; cytotoxic peptides
Method: (§1) Cells were treated with 3-fold serially diluted antibody-drug conjugates or free compounds (i.e., no antibody conjugated to the drug) in duplicate at 10 concentrations. Cell viability was determined by CellTiter 96® AQueous One Solution Cell Proliferation MTS Assay (Promega, Madison Wis.) 96 hours after treatment. Relative cell viability was determined as percentage of untreated control.

BT474 (breast cancer) = assay: as above; format: cell-based; conditions: Homo sapiens, BT-474, BT474 cells; geometric mean; cytotoxic peptides; read-out: BT474 GMEAN IC50
Method: as §1

[2] = Mouse pharmacokinetics, single dose, total antibody and ADC by ELISA; conditions: mice; single 3 mg/kg dose; 0-last of 0-336 h
[3] = Rat toxicokinetics, single dose, total antibody and ADC by ELISA; conditions: rats

| Compound | IC50 [1] [nM] | IC50 (BT474 (breast cancer)) [nM] | also measured |
| --- | --- | --- | --- |
| CC[C@H](C)[C@@H]([C@@H](CC(=O)N1CCC[C@H]1[C@H](OC)[C@@H](C)C(=O)N[C@@H](Cc1ccccc1)C(=O)OC)OC)N(C)C(=O)[C@@H](NC(=O)[C@@]1(C)CCCCN1)C(C)C (single isomer, unassigned) [#159] | 0.074 |  |  |
| CC[C@H](C)[C@@H]([C@@H](CC(=O)N1CCC[C@H]1[C@H](OC)[C@@H](C)C(=S)NCCc1ccccc1)OC)N(C)C(=O)[C@@H](NC(=O)[C@@H](NC)C(C)C)C(C)C [#36, N-methyl-L-valyl-N-{(3R,4S,5S)-3-methoxy-1-[(2S)-2-{(1R,2R)-1-methoxy-2-methyl-3-[(2-phenylethyl)amino]-3-thioxopropyl}pyrrolidin-1-yl]-5-methyl-1-oxoheptan-4-yl}-N-methyl-L-valinamide] |  | 0.499 |  |
| CC[C@H](C)[C@@H]([C@@H](CC(=O)N1CCC[C@H]1[C@H](OC)[C@@H](C)C(=O)N[C@@H](Cc1ccccc1)c1nccs1)OC)N(C)C(=O)[C@@H](NC(=O)C(C)(C)N)C(C)C [#54, 2-methylalanyl-N-[(3R,4S,5S)-3-methoxy-1-{(2S)-2-[(1R,2R)-1-methoxy-2-methyl-3-oxo-3-{[(1S)-2-phenyl-1-(1,3-thiazol-2-yl)ethyl]amino}propyl]pyrrolidin-1-yl}-5-methyl-1-oxoheptan-4-yl]-N-methyl-L-valinamide] | 0.206 |  |  |
| CC[C@H](C)[C@@H]([C@@H](CC(=O)N1CCC[C@H]1[C@H](OC)[C@@H](C)C(=O)N[C@@H](Cc1ccccc1)C(=O)O)OC)N(C)C(=O)[C@@H](NC(=O)C(C)(C)N)C(C)C [#69, 2-methylalanyl-N-[(3R,4S,5S)-1-{(2S)-2-[(1R,2R)-3-{[(1S)-1-carboxy-2-phenylethyl]amino}-1-methoxy-2-methyl-3-oxopropyl]pyrrolidin-1-yl}-3-methoxy-5-methyl-1-oxoheptan-4-yl]-N-methyl-L-valinamide] | 41 |  |  |
| CC[C@H](C)[C@@H]([C@@H](CC(=O)N1CCC[C@H]1[C@H](OC)[C@@H](C)C(=O)N[C@@H](Cc1ccccc1)C(=O)OC)OC)N(C)C(=O)[C@@H](NC(=O)C(C)(C)CN)C(C)C [#126, methyl N-[(2R,3R)-3-{(2S)-1-[(3R,4S,5S)-4-{[N-(3-amino-2,2-dimethylpropanoyl)-L-valyl](methyl)amino}-3-methoxy-5-methylheptanoyl]pyrrolidin-2-yl}-3-methoxy-2-methylpropanoyl]-L-phenylalaninate] |  | 0.315 |  |
| CC[C@H](C)[C@@H]([C@@H](CC(=O)N1CCC[C@H]1[C@H](OC)[C@@H](C)C(=O)N[C@@H](Cc1ccccc1)C(=O)OC)OC)N(C)C(=O)[C@@H](NC(=O)[C@@]1(C)CCCN1)C(C)C [#131, 2-methyl-D-prolyl-N-[(3R,4S,5S)-3-methoxy-1-{(2S)-2-[(1R,2R)-1-methoxy-3-{[(2S)-1-methoxy-1-oxo-3-phenylpropan-2-yl]amino}-2-methyl-3-oxopropyl]pyrrolidin-1-yl}-5-methyl-1-oxoheptan-4-yl]-N-methyl-L-valinamide] | 0.081 |  |  |
| CC[C@H](C)[C@@H]([C@@H](CC(=O)N1CCC[C@H]1[C@H](OC)[C@@H](C)C(=O)N[C@H](C)[C@@H](O)c1ccccc1)OC)N(C)C(=O)[C@@H](NC(=O)C(C)(C)NC)C(C)C [#145, N,2-dimethylalanyl-N-{(1S,2R)-4-{(2S)-2-[(1R,2R)-3-{[(1R,2S)-2-hydroxy-1-methyl-2-phenylethyl]amino}-1-methoxy-2-methyl-3-oxopropyl]pyrrolidin-1-yl}-2-methoxy-1-[(1S)-1-methylpropyl]-4-oxobutyl}-N-methyl-L-valinamide] |  | 0.185 |  |
| CC[C@H](C)[C@@H]([C@@H](CC(=O)N1CCC[C@H]1[C@H](OC)[C@@H](C)C(=O)N[C@@H](Cc1ccccc1)C(=O)OC)OC)N(C)C(=O)[C@@H](NC(=O)[C@@](C)(N)CC)C(C)C [#148, L-isovalyl-N-{(1S,2R)-4-{(2S)-2-[(1R,2R)-3-{[(1S)-1-benzyl-2-methoxy-2-oxoethyl]amino}-1-methoxy-2-methyl-3-oxopropyl]pyrrolidin-1-yl}-2-methoxy-1-[(1S)-1-methylpropyl]-4-oxobutyl}-N-methyl-L-valinamide] | 0.502 |  |  |
| CC[C@H](C)[C@@H]([C@@H](CC(=O)N1CCC[C@H]1[C@H](OC)[C@@H](C)C(=O)N[C@@H](Cc1ccccc1)C(=O)OC)OC)N(C)C(=O)[C@@H](NC(=O)[C@](C)(N)CC)C(C)C [#149, D-isovalyl-N-{(1S,2R)-4-{(2S)-2-[(1R,2R)-3-{[(1S)-1-benzyl-2-methoxy-2-oxoethyl]amino}-1-methoxy-2-methyl-3-oxopropyl]pyrrolidin-1-yl}-2-methoxy-1-[(1S)-1-methylpropyl]-4-oxobutyl}-N-methyl-L-valinamide] |  | 0.417 |  |
| CC[C@H](C)[C@@H]([C@@H](CC(=O)N1CCC[C@H]1[C@H](OC)[C@@H](C)C(=O)N[C@@H](Cc1ccccc1)C(=O)O)OC)N(C)C(=O)[C@@H](NC(=O)[C@@]1(C)CCCN1C)C(C)C [#153, 1,2-dimethyl-D-prolyl-N-{(1S,2R)-4-{(2S)-2-[(1R,2R)-3-{[(1S)-1-carboxy-2-phenylethyl]amino}-1-methoxy-2-methyl-3-oxopropyl]pyrrolidin-1-yl}-2-methoxy-1-[(1S)-1-methylpropyl]-4-oxobutyl}-N-methyl-L-valinamide] |  | 98.2 |  |
| CC[C@H](C)[C@@H]([C@@H](CC(=O)N1CCC[C@H]1[C@H](OC)[C@@H](C)C(=O)N[C@@H](Cc1ccccc1)c1nccs1)OC)N(C)C(=O)[C@@H](NC(=O)[C@@]1(C)CCCCN1)C(C)C [#190, (2R)—N-[(2S)-1-{[(3R,4S,5S)-3-methoxy-1-{(2S)-2-[(1R,2R)-1-methoxy-2-methyl-3-oxo-3-{[(1S)-2-phenyl-1-(1,3-thiazol-2-yl)ethyl]amino}propyl]pyrrolidin-1-yl}-5-methyl-1-oxoheptan-4-yl](methyl)amino}-3-methyl-1-oxobutan-2-yl]-2-methylpiperidine-2-carboxamide] | 0.095 |  |  |
| CC[C@H](C)[C@@H]([C@@H](CC(=O)N1CCC[C@H]1[C@H](OC)[C@@H](C)C(=O)N[C@@H](Cc1ccc2c(c1)CCCN2)C(=O)OC)OC)N(C)C(=O)[C@@H](NC(=O)[C@]1(C)CCCN1C)C(C)C [#207, 1,2-dimethyl-L-prolyl-N-[(3R,4S,5S)-3-methoxy-1-{(2S)-2-[(1R,2R)-1-methoxy-3-{[(2S)-1-methoxy-1-oxo-3-(1,2,3,4-tetrahydroquinolin-6-yl)propan-2-yl]amino}-2-methyl-3-oxopropyl]pyrrolidin-1-yl}-5-methyl-1-oxoheptan-4-yl]-N-methyl-L-valinamide] | 0.26 |  |  |
| CC[C@H](C)[C@@H]([C@@H](CC(=O)N1CCC[C@H]1[C@H](OC)[C@@H](C)C(=O)N[C@@H](Cc1ccc(N)cc1)C(=O)OC)OC)N(C)C(=O)[C@@H](NC(=O)[C@]1(C)CCCN1C)C(C)C [#208, 1,2-dimethyl-L-prolyl-N-[(3R,4S,5S)-1-{(2S)-2-[(1R,2R)-3-{[(2S)-3-(4-aminophenyl)-1-methoxy-1-oxopropan-2-yl]amino}-1-methoxy-2-methyl-3-oxopropyl]pyrrolidin-1-yl}-3-methoxy-5-methyl-1-oxoheptan-4-yl]-N-methyl-L-valinamide] |  | 0.418 |  |
| CC[C@H](C)[C@@H]([C@@H](CC(=O)N1CCC[C@H]1[C@H](OC)[C@@H](C)C(=O)N[C@H](C(=O)OC)[C@H]1Cc2ccccc21)OC)N(C)C(=O)[C@@H](NC(=O)C(C)(C)N)C(C)C [#225] | 7.58 |  |  |
| CC[C@H](C)[C@@H]([C@@H](CC(=O)N1CCC[C@H]1[C@H](OC)[C@@H](C)C(=O)N[C@H](C(=O)OC)[C@@H]1Cc2ccccc21)OC)N(C)C(=O)[C@@H](NC(=O)C(C)(C)N)C(C)C [#227] |  | 11 |  |
| CC[C@H](C)[C@@H]([C@@H](CC(=O)N1CCC[C@H]1[C@H](OC)[C@@H](C)C(=O)N[C@@H](Cc1ccccc1)C(=O)OC)OC)N(C)C(=O)[C@@H](NC(=O)C(C)(C)N(C)C)C(C)C [#228] | 0.078 |  |  |
| CC[C@H](C)[C@@H]([C@@H](CC(=O)N1CCC[C@H]1[C@H](OC)[C@@H](C)C(=O)N[C@@H](Cc1ccccc1)c1nccs1)OC)N(C)C(=O)[C@@H](NC(=O)[C@@]1(C)CCCN1)C(C)C [#232] | 0.095 |  |  |
| CC[C@H](C)[C@@H]([C@@H](CC(=O)N1CCC[C@H]1[C@H](OC)[C@@H](C)C(=O)N[C@@H](Cc1ccccc1)C(=O)NCc1c[nH]nn1)OC)N(C)C(=O)[C@@H](NC(=O)C(C)(C)NC)C(C)C [#240] |  | 11.7 |  |
| H(C)-MalPEG6C2-MMAD: trastuzumab cysteine conjugate comprising MMAD with MalPEG6C2 linker |  |  | AUC (0-last) ADC [2]: 2641 µg·h/mL; AUC (0-last) Ab [2]: 5415 µg·h/mL |
| H(C)-mc-MMAD: trastuzumab cysteine conjugate comprising MMAD with mc linker |  |  | AUC (0-last) ADC ([3]; Dose 10, 0-last of 0-336 h): 7650 µg·h/mL; AUC (0-last) Ab ([3]; Dose 10, 0-last of 0-336 h): 14500 µg·h/mL; AUC (0-last) ADC ([3]; Dose 30, 0-last of 0-336 h): 20700 µg·h/mL; AUC (0-last) Ab ([3]; Dose 30, 0-last of 0-336 h): 43800 µg·h/mL; AUC (0-last) ADC ([3]; Dose 100, 0-last of 0-336 h): 58000 µg·h/mL; AUC (0-last) ADC [2]: 3580 µg·h/mL; AUC (0-last) Ab [2]: 4970 µg·h/mL |
| H(C)-vc-MMAE: trastuzumab cysteine conjugate comprising MMAE with vc linker |  |  | AUC (0-last) ADC ([3]; Dose 3, 0-last of 0-96 hours): 1080^3 μg * Hours/mL; AUC (0-last) Ab ([3]; Dose 3, 0-last of 0-96 hours): 2950^3 μg * Hours/mL; AUC (0-last) ADC ([3]; Dose 10, 0-last of 0-96 hours): 3930^3 μg * Hours/mL; AUC (0-last) Ab ([3]; Dose 10, 0-last of 0-96 hours): 10600^3 μg * Hours/mL; AUC (0-last) ADC ([3]; Dose 30, 0-last of 0-96 hours): 13400^3 μg * Hours/mL; AUC (0-last) Ab ([3]; Dose 30, 0-last of 0-96 hours): 18400^3 μg * Hours/mL; AUC (0-last) ADC [2]: 1600 µg·h/mL; AUC (0-last) Ab [2]: 3290 µg·h/mL |
